Reference: US11918570B2, “Method of treatment for prevention of glucocorticoid toxicity and/or enhancement of muscle regeneration via neutrophil elastase inhibition” (The Research Foundation for The State University of New York, priority 2020, dated 2024)

Target: T1, Human NE (hNE) (Homo sapiens, UniProt P08246)
T1 sequence (P08246 30-267): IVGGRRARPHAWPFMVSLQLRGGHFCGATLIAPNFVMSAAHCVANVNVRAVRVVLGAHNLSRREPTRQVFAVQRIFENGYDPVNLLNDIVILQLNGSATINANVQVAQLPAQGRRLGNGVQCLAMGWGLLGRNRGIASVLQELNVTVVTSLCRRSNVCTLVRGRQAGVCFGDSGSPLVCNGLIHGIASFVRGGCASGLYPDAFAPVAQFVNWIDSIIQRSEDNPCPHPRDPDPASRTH
Assay: Human NE activity in vitro, cumulative elastase activity over time
Assay type: biochemical
Conditions: hNE incubated with various concentration of inhibitor; FIGS. 1A-1C
Protocol: In FIGS. 1A-1C Human NE (hNE) was incubated for the indicated amount of time (X-axis) either alone (Control, black line) or in the presence of various concentration of inhibitor, as indicated in each graph (colored lines). The cumulative elastase activity detected over time is plotted.
Several methods for measuring elastase enzymatic activity are known in the art. Merely by way of example, elastase activity can be determined by measuring the fluorescence emitted by a fluorigenic peptide such as MeOSuc-Ala-Ala-Pro-Val-AFC or Suc-Ala-Ala-Ala-AMC. Fluorescence may be measured, for example, using a plate reader. Other suitable assays for measuring elastase activity will be known to the skilled person. These may include measuring the product generated by incubation with a fluorescently labelled peptide such as 5-FAM-Arg-Glu-Ala-Val-Val-Tyr or 5-FAM-Ala-Ala-Ala-Phe-Tyr-Asp using an instrument that detects the size of the fluorescently labelled probe.

CC(=O)C1=C(C)N(c2cccc(C(F)(F)F)c2)C(=O)N[C@@H]1c1ccc(C#N)nc1 [BAY-678]
inhibiting human NE activity in vitro: similarly potent
